Experimental data published in US9260483B2, “Triazacyclononane-based phosphinate ligand and its use for molecular imaging” (TECHNISCHE UNIVERSITÄT MÜNCHEN, priority 2011, dated 2016).

Test system: mice bearing M21/M21L human melanoma xenografts (integrin expression)
Test: PET imaging
Conditions: mice with tumor xenografts

N=C(N)NCCC[C@@H]1NC(=O)[C@H](CCCCNC(=O)CCOCCOCCOCCOCCNC(=O)CCP(=O)(O)CN2CCN(CP(=O)(O)CCC(=O)NCCOCCOCCOCCOCCC(=O)NCCCC[C@@H]3NC(=O)[C@H](Cc4ccccc4)NC(=O)[C@H](CC(=O)O)NC(=O)CNC(=O)[C@H](CCCNC(=N)N)NC3=O)CCN(CP(=O)(O)CCC(=O)NCCOCCOCCOCCOCCC(=O)NCCCC[C@@H]3NC(=O)[C@@H](Cc4ccccc4)NC(=O)[C@@H](CC(=O)O)NC(=O)CNC(=O)[C@@H](CCCNC(=N)N)NC3=O)CC2)NC(=O)[C@H](Cc2ccccc2)NC(=O)[C@H](CC(=O)O)NC(=O)CNC1=O [Compound R3PEG4P9]
suitability of the tracer for imaging of integrin expression (biodistribution and PET imaging): suitability of the tracer for imaging of integrin expression
